Assay results from PubChem BioAssay AID1446 (The Scripps Research Institute Molecular Screening Center, 2008).
The list shows a part of the results, in another mix than the full data. The source made the active and inactive calls.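 The calls were made as follows: active = inhibition above the campaign mean plus 3 SD over all tested compounds (cut at about 24% in these data); inactive = the rest.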

Test: reduced viability of JAK2V617F-dependent Ba/F3 cells, primary screen, JAK2V617F inhibitor project, cell-based, Ba/F3 EpoR-JAK2V617F, luminescence (AID 1446);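 also: cytokine-independent growth of Ba/F3 cells driven by EpoR plus mutant JAK2; 0% = DMSO-treated cells and 100% = JAK inhibitor I control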
Details: ATP luminescence, at 5.6 µM, active compounds read high

| SMILES | inhibition |
| --- | --- |
| COc1ccc(OP(C)(=O)Nc2ccccn2)cc1 (stereo not drawn) | inactive: -0.06% |
| CN(C)CCOC(=O)C(O)(c1ccccc1)C1CCCC1 (stereo not drawn) | inactive: -1.61% |
| COc1ccccc1OP(C)(=O)Nc1ccc(Br)cc1 (stereo not drawn) | inactive: -0.55% |
| CP(=O)(Nc1ccccn1)Oc1ccccc1 (stereo not drawn) | inactive: 0.33% |
| COc1ccccc1OP(C)(=O)Nc1ccc(C)cc1C (stereo not drawn) | inactive: -0.61% |
| CCc1ccc(OP(C)(=O)O)cc1 | inactive: 2.28% |
| Cc1c(NP(C)(=O)Oc2ccc(C(C)C)cc2)c(=O)n(-c2ccccc2)n1C (stereo not drawn) | inactive: -1.8% |
| O=[N+]([O-])c1cc([N+](=O)[O-])c(Nc2ccccn2)c([N+](=O)[O-])c1 | inactive: -1.46% |
| COc1ccccc1OP(C)(=O)Nc1ccc(C)c(C)c1 (stereo not drawn) | inactive: -2.79% |
| COc1ccc(OP(C)(=O)Nc2ccccc2Br)cc1 (stereo not drawn) | inactive: 1.9% |
| Cc1cc(C)cc(OP(C)(=O)Nc2cccc(C(F)(F)F)c2)c1 (stereo not drawn) | inactive: -1% |
| CP(=O)(Nc1ccc(Cl)cc1Cl)Oc1ccccc1 (stereo not drawn) | inactive: 0.85% |
| CP(=O)(OCCOc1ccccc1)OCCOc1ccccc1 | inactive: 1.66% |
| Cc1nc2ccc3ccccc3c2o1.O=[N+]([O-])c1cc([N+](=O)[O-])c(O)c([N+](=O)[O-])c1 | inactive: -1.45% |
| CCOC(=O)c1ccc(NP(C)(=O)Oc2ccc(Cl)cc2)cc1 (stereo not drawn) | inactive: 0.47% |
| CP(=O)(OC12CC3CC(CC(C3)C1)C2)OC12CC3CC(CC(C3)C1)C2 | inactive: 1.88% |
| COc1ccccc1OP(C)(=O)Nc1c(C)n(C)n(-c2ccccc2)c1=O (stereo not drawn) | inactive: 4.44% |
| O=C(OCCCN1CCCC1)C(O)(c1ccccc1)C1CCCCC1 (stereo not drawn) | inactive: 2.26% |
| CP(=O)(Oc1ccccc1)N1CCOC1=O (stereo not drawn) | inactive: -0.15% |
| CCc1ccc(OP(C)(=O)Nc2cccnc2)cc1 (stereo not drawn) | inactive: -3.87% |
| CCN(CC)CC(O)COC(=O)C(O)(c1ccccc1)C1CCCCC1 (stereo not drawn) | inactive: -0.71% |

| SMILES | inhibition |
| --- | --- |
| COc1ccc(OP(C)(=O)Nc2ccc(Br)cc2)cc1 (stereo not drawn) | inactive: -0.47% |
| CN(C)C(=O)c1c([N+](=O)[O-])cc([N+](=O)[O-])cc1[N+](=O)[O-] | inactive: 2.02% |
| COc1ccccc1OP(C)(=O)Nc1ccccc1Br (stereo not drawn) | inactive: -4.8% |
| CC(C)(C)c1ccc(OP(C)(=O)O)cc1 | inactive: -1.44% |
| CP(=O)(Nc1ccc(Cl)cc1)Oc1ccc(F)cc1 (stereo not drawn) | inactive: 0.36% |
| CCOP(C)(=S)SCC(=O)NC(C)(CC)C(=O)O (stereo not drawn) | inactive: 0.27% |
| CP(=O)(Nc1ccc(SC(F)(F)F)cc1)Oc1ccc(F)cc1 (stereo not drawn) | inactive: -3.19% |
| Cc1ccccc1NP(C)(=O)Nc1ccccc1C | inactive: -3.89% |
| CP(=O)(Nc1ccc2c(c1)OCCO2)Oc1ccccc1 (stereo not drawn) | inactive: 0.66% |
| CN(C)CCOC(=O)C(O)(c1ccccc1)C1CCCCC1 (stereo not drawn) | inactive: 4.59% |
| COc1ccc(NP(C)(=O)Oc2ccccc2OC)cc1 (stereo not drawn) | inactive: 0.47% |
| COc1ccc(OP(C)(=O)Nc2cccc(Br)c2)cc1 (stereo not drawn) | inactive: -1.97% |
| O=[N+]([O-])c1ccc(OP2(=O)COCCO2)cc1 (stereo not drawn) | inactive: 0.1% |
| O=[N+]([O-])c1cc([N+](=O)[O-])c(NCC2CCS(=O)(=O)C2)c([N+](=O)[O-])c1 (stereo not drawn) | inactive: 3.49% |
| Cc1cc(-c2cccc3ccccc23)c(C)cn1.O=[N+]([O-])c1cc([N+](=O)[O-])c(O)c([N+](=O)[O-])c1 | inactive: -0.91% |
| CCOC(=O)c1ccc(NP(C)(=O)Oc2ccc(F)cc2)cc1 (stereo not drawn) | inactive: 1.77% |
| COc1ccc(OP(C)(=O)Nc2ccc(SC(F)(F)F)cc2)cc1 (stereo not drawn) | inactive: -4% |
| CP(=O)(Nc1ccccc1)Oc1ccc(F)cc1 (stereo not drawn) | inactive: -1.75% |
| CCCCCOc1ccc(NP(C)(=O)Oc2ccc(Cl)cc2Cl)cc1 (stereo not drawn) | inactive: 0.07% |
| CCN(CC)CCCOC(=O)C(O)(c1ccccc1)C1CCCCC1 (stereo not drawn) | inactive: 3.56% |
| CP(=O)(Nc1ccccc1F)Oc1ccccc1 (stereo not drawn) | inactive: -0.54% |

| SMILES | inhibition |
| --- | --- |
| CC(C)c1ccc(OP(C)(=O)Nc2ccc(SC(F)(F)F)cc2)cc1 (stereo not drawn) | inactive: -0.83% |
| O=C(OC1CN2CCC1CC2)c1ccc([N+](=O)[O-])cc1 (stereo not drawn) | inactive: -0.49% |
| O=C(OCCN1CCN(CCOCc2ccccc2)CC1)C(O)(c1ccccc1)c1ccccc1 | inactive: 0.04% |
| CCOC(=O)c1ccc(NP(C)(=O)Oc2cc(C)cc(C)c2)cc1 (stereo not drawn) | inactive: -0.83% |
| Cc1cc(C)cc(OP(C)(=O)Nc2ccc(C)cc2C)c1 (stereo not drawn) | inactive: 2.32% |
| COc1ccccc1OP(C)(=O)Nc1cccc(Br)c1 (stereo not drawn) | inactive: 4.49% |
| Cc1ccc(C)c(NP(C)(=O)Oc2ccccc2)c1 (stereo not drawn) | inactive: -0.42% |
| Cc1cc(C)cc(OP(C)(=O)Nc2ccccn2)c1 (stereo not drawn) | inactive: -1.04% |
| CP(=O)(Nc1cccc(Br)c1)Oc1ccccc1 (stereo not drawn) | inactive: -1.78% |
| O=C(O)c1cccc(Nc2c([N+](=O)[O-])cc([N+](=O)[O-])cc2[N+](=O)[O-])c1 | inactive: -0.91% |
| CC1=NCCc2c1[nH]c1ccccc21.O=[N+]([O-])c1cc([N+](=O)[O-])c(O)c([N+](=O)[O-])c1 | inactive: 4.34% |
| O=[N+]([O-])c1cc([N+](=O)[O-])c(Nc2nnnn2CCO)c([N+](=O)[O-])c1 | inactive: -3.44% |
| CCOC(=O)C(CC)C1=NC(C)(C)Cc2ccccc21.O=[N+]([O-])c1cc([N+](=O)[O-])c(O)c([N+](=O)[O-])c1 (stereo not drawn) | inactive: -0.96% |
| CCCOc1ccc(NP(C)(=O)Oc2ccc(Cl)cc2)cc1 (stereo not drawn) | inactive: -1.61% |
| CP(=O)(Nc1ccc(SC(F)(F)F)cc1)Oc1ccccc1 (stereo not drawn) | inactive: -2.72% |
| COc1ccccc1OP(C)(=O)Nc1c(C)cccc1C (stereo not drawn) | inactive: 2.79% |
| CN1CCCCC1COC(=O)C1(O)c2ccccc2CCc2ccccc21 (stereo not drawn) | inactive: -4.82% |
| O=[N+]([O-])c1cc([N+](=O)[O-])c(-n2nnc3ccccc32)c([N+](=O)[O-])c1 | inactive: 2.42% |
| Cc1nc2ccc3ccccc3c2s1.O=[N+]([O-])c1cc([N+](=O)[O-])c(O)c([N+](=O)[O-])c1 | inactive: -0.19% |
| CP(=O)(NC(=O)Nc1ccccc1)Oc1ccccc1 (stereo not drawn) | inactive: 1.67% |
| CCc1ccc(OP(C)(=O)N2CCN(c3ccc([N+](=O)[O-])cc3)CC2)cc1 (stereo not drawn) | inactive: 2.17% |

| SMILES | inhibition |
| --- | --- |
| Cc1cc(C)cc(OP(C)(=O)Nc2ccc(SC(F)(F)F)cc2)c1 (stereo not drawn) | inactive: 5.25% |
| Cc1cccc(C)c1OP(C)(=O)Nc1ccc(SC(F)(F)F)cc1 (stereo not drawn) | inactive: -3.26% |
| CP(=O)(Nc1ccc(SC(F)(F)F)cc1)Oc1ccc(Cl)cc1 (stereo not drawn) | inactive: 1.26% |
| CP(=O)(Oc1ccccc1)OC(c1ccccc1)C(F)(F)F (stereo not drawn) | inactive: -0.53% |
| CP(=O)(Nc1ccccn1)Oc1ccc(Cl)cc1 (stereo not drawn) | inactive: -2.21% |
| CCOC(=O)c1ccc(NP(C)(=O)Oc2ccc(OC)cc2)cc1 (stereo not drawn) | inactive: 0.57% |
| CCOP(C)(=S)SCC(=O)NC(C)C(=O)O (stereo not drawn) | inactive: 3.93% |
| CP(=O)(Nc1ccccc1Br)Oc1ccccc1 (stereo not drawn) | inactive: 1.54% |
| COc1ccccc1OP(C)(=O)Nc1ccccc1 (stereo not drawn) | inactive: -0.71% |
| CP(=S)(Nn1cnnc1)Oc1ccccc1 (stereo not drawn) | inactive: 1.4% |
| O=[N+]([O-])c1ccc2c(c1)C=Nc1ccccc1O2 | inactive: -0.25% |
| CC(C)(C)c1ccc(OP(C)(=O)Nc2ccc(SC(F)(F)F)cc2)cc1 (stereo not drawn) | inactive: 1.24% |
| Cc1cccc(C)c1OP(C)(N)=O (stereo not drawn) | inactive: 0.77% |
| Cc1cc(C)cc(OP(C)(N)=O)c1 (stereo not drawn) | inactive: 3.59% |
| COc1ccccc1OP(C)(=O)Nc1cc(Cl)ccc1C (stereo not drawn) | inactive: 0.86% |
| COc1ccc(OP(C)(=O)Nc2cccc(F)c2)cc1 (stereo not drawn) | inactive: -2.93% |
| COc1ccccc1OP(C)(=O)Nc1ccc(C)cc1 (stereo not drawn) | inactive: -0.88% |
| Cc1ccc(NP(C)(=O)Oc2ccccc2)c(C)c1 (stereo not drawn) | inactive: -4.87% |
| CCOC(=O)c1ccc(NP(C)(=O)Oc2ccccc2)cc1 (stereo not drawn) | inactive: -3.07% |
| CCN(CC)CCCOC(=O)C(O)(c1ccccc1)c1ccccc1 | inactive: 0.26% |
